Experimental findings from patent EP4806909A1, “GLP-1 COMPOUND, AND PREPARATION METHOD THEREFOR AND USE THEREOF” (Shenzhen Salubris Pharmaceuticals Co., Ltd., priority 2023, dated 2025) are described below.

Sequences of proteins named here, by UniProt entry; tags and fusion partners are left off. Residues count along the entry.
UniProt P43220, 24-463, species assumed: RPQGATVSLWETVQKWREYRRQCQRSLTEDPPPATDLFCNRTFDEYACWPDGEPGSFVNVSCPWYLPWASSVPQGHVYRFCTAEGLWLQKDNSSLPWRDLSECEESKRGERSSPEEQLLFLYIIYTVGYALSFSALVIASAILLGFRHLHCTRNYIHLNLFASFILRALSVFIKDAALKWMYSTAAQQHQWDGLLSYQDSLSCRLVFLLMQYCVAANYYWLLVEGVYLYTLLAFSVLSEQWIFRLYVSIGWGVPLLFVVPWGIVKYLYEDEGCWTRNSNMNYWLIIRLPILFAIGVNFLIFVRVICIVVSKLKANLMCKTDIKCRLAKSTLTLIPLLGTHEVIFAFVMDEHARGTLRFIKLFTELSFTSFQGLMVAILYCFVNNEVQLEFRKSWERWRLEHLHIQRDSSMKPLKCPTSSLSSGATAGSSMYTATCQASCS

One data set concerns the target T1, GLP-1 receptor (Homo sapiens, UniProt P43220).
T1 construct: expressed in transfected cells
Put plainly: GLP-1 activity assay (cAMP HTRF). Type of data set: cell-based. Particulars: U20S-GLP-1R stable transfected cell line, 30 minutes at 37°C. The procedure:
The agonistic effect of the test substance on the GLP-1 receptor was determined using a U20S-GLP-1R stable transfected cell line and a HTRF detection method.
• 1. According to the experimental procedure of the cAMP-Gs Dynamic HTRF kit, the 5x Stimulation buffer (SB) provided in the kit was diluted to 1xSB with ddH2O. IBMX was added to the 1xSB solution to a final concentration of 500 µM to prevent degradation of cAMP. Then, a working solution of the test substance was prepared using 1xSB and subjected to a series of gradient dilutions. • 2. U2OS-GLP-1R cells were digested and collected. After resuspending and counting, the cell density was diluted to 2x10^6 cells/mL using 1xSB solution. Then, 5 µL per well was seeded into a 384-well cell culture plate, resulting in 10,000 cells per well. • 3. The test substances were added at different concentrations into the corresponding cell wells at 5 µL per well, and incubated in a 37°C incubator for 30 minutes. • 4. According to the steps provided by the cAMP-Gs Dynamic HTRF kit, cAMP standard solutions of different concentrations were prepared and added into the 384-well plate. • 5. The cAMP d2 reagent and Eu Cryptate antibody provided in the kit were diluted to 1x using Lysis & Detection Buffer. Then, d2 and Eu solutions were added to the 384-well plate, 5 µL each well. After incubation at room temperature for 2 hours, the plate was read using the HTRF module (665/620 nm) of a microplate reader, and experimental data was collected. • 6. A curve was plotted using the signal value versus the compound concentration. Curve fitting and EC50 calculation were performed using nonlinear regression of GraphPad Prism software. […] Table 2: GLP-1 Activity of the compounds

Data set [1] can be described thus: Pharmacokinetic experiment in rats. Type of data set: in vivo. The note with it: rat, plasma; SD rats, male, intravenous, 0.2 mg/kg, sampling to 72 hours. The procedure: Dulbecco's phosphate buffered saline (DPBS) (Batch No.: F2326001, Shanghai Aladdin Biochemical Technology Co., Ltd.). LC-MS instrument (Thermo TSQ Altis Plus).
SD rats: Male, 180-250g, purchased from Guangdong Vital River Laboratory Animal Technology Co., Ltd.
The test sample powder was accurately weighed and completely dissolved in Dulbecco's phosphate buffered saline free of Ca^2+/Mg^2+, mixed well to obtain a 0.1 mg/mL solution, and administered intravenously at a dose of 2 mL/kg.
After intravenous administration to the rats, approximately 200 µL of venous blood was collected into EDTA-K2 anticoagulant-coated EP tubes pre-dose and post-dose at 0, 0.5, 2, 5, 24, 48, and 72 hours . The blood was centrifuged at 12,000 rpm for 2 minutes. The plasma was collected and stored frozen at -20°C until analysis.
A certain amount of the test sample was accurately weighed and dissolved in DMSO to prepare a 2 mg/mL stock solution. An appropriate amount of the compound stock solution was accurately pipetted and diluted with an acetonitrile-aqueous solution (ACN:H2O=1:1) to prepare a series of standard solutions. […]
After determining the plasma drug concentration by LC-MS, the pharmacokinetic parameters in rats post-administration were calculated using a non-compartmental model with WinNonlin 6.1 software.

Data set [2] is described as follows: Determination of conversion half-life. Type of data set: physicochemical. Particulars: PBS buffer pH = 7.4, 200 µM, incubated at 37°C, within 2 weeks. On the procedure: A peptide stock solution was prepared by dissolving the test sample in a PBS buffer to a target concentration of 200 µM, wherein the PBS buffer was Dulbecco's phosphate-buffered saline free of Ca^2+ and Mg^2+, pH = 7.4. The pH of the peptide stock solution was adjusted to 7.4 using HCl or NaOH. The sample was transferred to HPLC vials. The vials were capped tightly to prevent evaporation. The HPLC vials were incubated at 37°C, and samples were taken at various time points within 2 weeks, flash-frozen at -80°C, and stored at -20°C until analysis. Samples were analyzed using LC/MS or liquid chromatography. The conversion half-life of the test sample was calculated based on the reduction in the amount of the test sample prototype.

One may read the EC50 as the concentration needed to bring the measured effect to its halfway point. Low readings indicate greater potency, high ones weaker potency. Consider `CC[C@H](C)[C@H](NC(=O)[C@H](Cc1ccccc1)NC(=O)[C@H](CCC(=O)O)NC(=O)[C@H](CCCCNC(=O)COCCOCCNC(=O)COCCOCCNC(=O)CC[C@H](NC(=O)CCCCCCCCCCCCCCCCC(=O)O)C(=O)O)NC(=O)[C@H](C)NC(=O)[C@H](C)NC(=O)[C@H](CCC(N)=O)NC(=O)CNC(=O)[C@H](CCC(=O)O)NC(=O)[C@H](CC(C)C)NC(=O)[C@H](Cc1ccc(O)cc1)NC(=O)[C@H](CO)NC(=O)[C@H](CO)NC(=O)[C@@H](NC(=O)[C@H](CC(=O)O)NC(=O)[C@H](CO)NC(=O)[C@@H](NC(=O)[C@H](Cc1ccccc1)NC(=O)[C@@H](NC(=O)CNC(=O)[C@H](CCC(=O)O)NC(=O)C(C)(C)NC(=O)[C@H](Cc1c[nH]cn1)NC(=O)CN(CCNC(=O)CC[C@H](NC(=O)CCCCCCCCCCCCCCC(=O)O)C(=O)O)C(=O)CN)[C@@H](C)O)[C@@H](C)O)C(C)C)C(=O)N[C@@H](C)C(=O)N[C@@H](Cc1c[nH]c2ccccc12)C(=O)N[C@@H](CC(C)C)C(=O)N[C@H](C(=O)N[C@@H](CCCNC(=N)N)C(=O)NCC(=O)N[C@@H](CCCNC(=N)N)C(=O)NCC(=O)O)C(C)C` [Comparative Example 1, reference compound], for which it took 90.3 nM to reach a half-maximal effect on GLP-1 receptor (EC50). What is called AUC(0-t) is exposure summed from dosing to a finite time, without extrapolation to infinity. Read a high AUC(0-t) as more exposure. In data set [1], `CC[C@H](C)[C@H](NC(=O)[C@H](Cc1ccccc1)NC(=O)[C@H](CCC(=O)O)NC(=O)[C@H](CCCCNC(=O)COCCOCCNC(=O)COCCOCCNC(=O)CC[C@H](NC(=O)CCCCCCCCCCCCCCCCC(=O)O)C(=O)O)NC(=O)[C@H](C)NC(=O)[C@H](C)NC(=O)[C@H](CCC(N)=O)NC(=O)CNC(=O)[C@H](CCC(=O)O)NC(=O)[C@H](CC(C)C)NC(=O)[C@H](Cc1ccc(O)cc1)NC(=O)[C@H](CO)NC(=O)[C@H](CO)NC(=O)[C@@H](NC(=O)[C@H](CC(=O)O)NC(=O)[C@H](CO)NC(=O)[C@@H](NC(=O)[C@H](Cc1ccccc1)NC(=O)[C@@H](NC(=O)CNC(=O)[C@H](CCC(=O)O)NC(=O)C(C)(C)NC(=O)[C@H](Cc1c[nH]cn1)NC(=O)CN(CCOCCNC(=O)CC[C@H](NC(=O)CCCCCCCCCCCCCCC(=O)O)C(=O)O)C(=O)CN)[C@@H](C)O)[C@@H](C)O)C(C)C)C(=O)N[C@@H](C)C(=O)N[C@@H](Cc1c[nH]c2ccccc12)C(=O)N[C@@H](CC(C)C)C(=O)N[C@H](C(=O)N[C@@H](CCCNC(=N)N)C(=O)NCC(=O)N[C@@H](CCCNC(=N)N)C(=O)NCC(=O)O)C(C)C` [Example 5] returned an area under the curve AUC(0-t) of 81500 ng·h/mL. For the same compound, it took 15 nM to reach a half-maximal effect at GLP-1 receptor (EC50). Taken in the same sequence, the figures for `CC[C@H](C)[C@H](NC(=O)[C@H](Cc1ccccc1)NC(=O)[C@H](CCC(=O)O)NC(=O)[C@H](CCCCNC(=O)COCCOCCNC(=O)COCCOCCNC(=O)CC[C@H](NC(=O)CCCCCCCCCCCCCCCCC(=O)O)C(=O)O)NC(=O)[C@H](C)NC(=O)[C@H](C)NC(=O)[C@H](CCC(N)=O)NC(=O)CNC(=O)[C@H](CCC(=O)O)NC(=O)[C@H](CC(C)C)NC(=O)[C@H](Cc1ccc(O)cc1)NC(=O)[C@H](CO)NC(=O)[C@H](CO)NC(=O)[C@@H](NC(=O)[C@H](CC(=O)O)NC(=O)[C@H](CO)NC(=O)[C@@H](NC(=O)[C@H](Cc1ccccc1)NC(=O)[C@@H](NC(=O)CNC(=O)[C@H](CCC(=O)O)NC(=O)C(C)(C)NC(=O)[C@H](Cc1c[nH]cn1)NC(=O)CN(CCOCCNC(=O)C[C@H](NC(=O)CCCCCCCCCCCCCCC(=O)O)C(=O)O)C(=O)CN)[C@@H](C)O)[C@@H](C)O)C(C)C)C(=O)N[C@@H](C)C(=O)N[C@@H](Cc1c[nH]c2ccccc12)C(=O)N[C@@H](CC(C)C)C(=O)N[C@H](C(=O)N[C@@H](CCCNC(=N)N)C(=O)NCC(=O)N[C@@H](CCCNC(=N)N)C(=O)NCC(=O)O)C(C)C` [Example 6] were 98300 ng·h/mL and 14.3 nM.

As for `CC[C@H](C)[C@H](NC(=O)[C@H](Cc1ccccc1)NC(=O)[C@H](CCC(=O)O)NC(=O)[C@H](CCCCNC(=O)COCCOCCNC(=O)COCCOCCNC(=O)CC[C@H](NC(=O)CCCCCCCCCCCCCCCCC(=O)O)C(=O)O)NC(=O)[C@H](C)NC(=O)[C@H](C)NC(=O)[C@H](CCC(N)=O)NC(=O)CNC(=O)[C@H](CCC(=O)O)NC(=O)[C@H](CC(C)C)NC(=O)[C@H](Cc1ccc(O)cc1)NC(=O)[C@H](CO)NC(=O)[C@H](CO)NC(=O)[C@@H](NC(=O)[C@H](CC(=O)O)NC(=O)[C@H](CO)NC(=O)[C@@H](NC(=O)[C@H](Cc1ccccc1)NC(=O)[C@@H](NC(=O)CNC(=O)[C@H](CCC(=O)O)NC(=O)C(C)(C)NC(=O)[C@H](Cc1c[nH]cn1)NC(=O)[C@H](CCCCNC(=O)CC[C@H](NC(=O)CCCCCCCCCCCCCCC(=O)O)C(=O)O)N(C)C(=O)CN)[C@@H](C)O)[C@@H](C)O)C(C)C)C(=O)N[C@@H](C)C(=O)N[C@@H](Cc1c[nH]c2ccccc12)C(=O)N[C@@H](CC(C)C)C(=O)N[C@H](C(=O)N[C@@H](CCCNC(=N)N)C(=O)NCC(=O)N[C@@H](CCCNC(=N)N)C(=O)NCC(=O)O)C(C)C` [Example 9], the “in vitro conversion half-life” value in data set [2] is reported as “not less than 50 h”. For the same compound, the EC50 at GLP-1 receptor amounted to 35.8 nM. For `CC[C@H](C)[C@H](NC(=O)[C@H](Cc1ccccc1)NC(=O)[C@H](CCC(=O)O)NC(=O)[C@H](CCCCNC(=O)COCCOCCNC(=O)COCCOCCNC(=O)CC[C@H](NC(=O)CCCCCCCCCCCCCCCCC(=O)O)C(=O)O)NC(=O)[C@H](C)NC(=O)[C@H](C)NC(=O)[C@H](CCC(N)=O)NC(=O)CNC(=O)[C@H](CCC(=O)O)NC(=O)[C@H](CC(C)C)NC(=O)[C@H](Cc1ccc(O)cc1)NC(=O)[C@H](CO)NC(=O)[C@H](CO)NC(=O)[C@@H](NC(=O)[C@H](CC(=O)O)NC(=O)[C@H](CO)NC(=O)[C@@H](NC(=O)[C@H](Cc1ccccc1)NC(=O)[C@@H](NC(=O)CNC(=O)[C@H](CCC(=O)O)NC(=O)C(C)(C)NC(=O)[C@H](Cc1c[nH]cn1)NC(=O)[C@H](CCNC(=O)CC[C@H](NC(=O)CCCCCCCCCCCCCCC(=O)O)C(=O)O)N(C)C(=O)CN)[C@@H](C)O)[C@@H](C)O)C(C)C)C(=O)N[C@@H](C)C(=O)N[C@@H](Cc1c[nH]c2ccccc12)C(=O)N[C@@H](CC(C)C)C(=O)N[C@H](C(=O)N[C@@H](CCCNC(=N)N)C(=O)NCC(=O)N[C@@H](CCCNC(=N)N)C(=O)NCC(=O)O)C(C)C` [Example 12], in that order: “not less than 50 h” and 36.1 nM.
